Experimental data taken from the CheMixHub ionic liquid set.

Test: xn = mol fraction of the nth substance listed
Conditions: 298.15 K; 101 kPa; x1 = 0.5

SMILES | viscosity [mPa·s]
OCCOCCOCCOCCO + CCCC[n+]1ccn(C)c1.F[B-](F)(F)F | 58 ± 1.4
OCCOCCOCCOCCO + CCCC[n+]1ccn(C)c1.F[P-](F)(F)(F)(F)F | 123.2 ± 4.7
OCCOCCOCCOCCO + CCCC[n+]1ccn(C)c1.O=S(=O)([N-]S(=O)(=O)C(F)(F)F)C(F)(F)F | 46.4 ± 1.1

Same assay, conditions: 298.15 K; 101 kPa; x1 = 1

SMILES | viscosity [mPa·s]
OCCOCCOCCOCCO + CCCC[n+]1ccn(C)c1.F[B-](F)(F)F | 47 ± 1.1
OCCOCCOCCOCCO + CCCC[n+]1ccn(C)c1.F[P-](F)(F)(F)(F)F | 47.2 ± 1.1
OCCOCCOCCOCCO + CCCC[n+]1ccn(C)c1.O=C([O-])C(F)(F)F | 46.8 ± 1.1
OCCOCCOCCOCCO + CCCC[n+]1ccn(C)c1.O=S(=O)([N-]S(=O)(=O)C(F)(F)F)C(F)(F)F | 46.3 ± 1.1

± gives the uncertainty stated by the source.
